Laboratory results published in BindingDB's records for doi:10.1021/jm00079a024 (Roche Products, 1992).

Chains of the proteins cited; added tags and fusions are not shown.
UniProt P68403, whole entry: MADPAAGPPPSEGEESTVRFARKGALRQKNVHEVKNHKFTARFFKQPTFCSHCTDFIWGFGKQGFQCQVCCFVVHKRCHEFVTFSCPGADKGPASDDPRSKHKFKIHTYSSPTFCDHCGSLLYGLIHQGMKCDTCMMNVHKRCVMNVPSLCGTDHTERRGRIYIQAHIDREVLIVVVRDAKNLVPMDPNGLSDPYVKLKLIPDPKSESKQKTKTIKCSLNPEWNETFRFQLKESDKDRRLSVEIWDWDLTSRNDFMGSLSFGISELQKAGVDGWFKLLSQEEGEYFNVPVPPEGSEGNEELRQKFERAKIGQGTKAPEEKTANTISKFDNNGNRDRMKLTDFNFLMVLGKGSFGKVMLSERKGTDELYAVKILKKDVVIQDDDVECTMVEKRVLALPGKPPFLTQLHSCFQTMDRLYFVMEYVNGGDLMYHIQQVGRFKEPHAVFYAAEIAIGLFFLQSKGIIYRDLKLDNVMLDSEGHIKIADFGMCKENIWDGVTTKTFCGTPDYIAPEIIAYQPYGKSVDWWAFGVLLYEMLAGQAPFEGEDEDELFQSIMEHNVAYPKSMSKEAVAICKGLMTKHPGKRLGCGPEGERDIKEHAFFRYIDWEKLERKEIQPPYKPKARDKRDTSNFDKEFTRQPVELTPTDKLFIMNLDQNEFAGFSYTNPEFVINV

Target: Protein kinase C beta type (Rattus norvegicus, UniProt P68403)
Assay: PKC assay
Settings: pH 7.5; 30 °C
Method: The activity of PKC, activated by phosphatidylerine and Ca2+, is measured by its ability to transfer phosphate from [gamma-32P]ATP to lysine-rich histone.

COC(=O)[C@]1(O)C[C@@H]2O[C@@]1(C)n1c3ccccc3c3c4c(c5c6ccccc6n2c5c31)C(=O)NC4 [methyl (15R,16S,18S)-16-hydroxy-15-methyl-3-oxo-28-oxa-4,14,19-triazaoctacyclo[12.11.2.1^{15,18}.0^{2,6}.0^{7,27}.0^{8,13}.0^{19,26}.0^{20,25}]octacosa-1(26),2(6),7(27),8(13),9,11,20(25),21,23-nonaene-16-carboxylate] gave an IC50 of 470 nM.
